The values below come from patent US20240342239A1, “TREATMENT OF NON-CYSTIC FIBROSIS BRONCHIECTASIS” (Zambon S.P.A., priority 2021, published 2024).

In this data set the test system is subjects with NCFB chronically infected with P. aeruginosa.

Turning to colistimethate sodium [CMS], the safety and tolerability result (CMS by I-neb) is “safe and well tolerated”. This substance also registered a bronchospasm observed (clinically or spirometrically determined) of 2.8%. Besides, where the note is “in vivo”, the antibiotic resistance observed was found to be 1%; the “development of P. aeruginosa resistance to colistin sulphate” value was determined as 1%; the “development of colistimethate resistance, active vs placebo groups” value was “no data suggestive of development of colistimethate resistance”. For the same substance, the “patients with bronchospasm experienced clinically” value (patients on CMS treatment) is recorded as 0.6%.
